Results from publication PMC11345830, “Exploration of Hydrazide-Based HDAC8 PROTACs for the Treatment of Hematological Malignancies and Solid Tumors” (Journal of Medicinal Chemistry, 2024).

Experiments:
Type in all cases: cell-based
caspase 3/7 [1] = assay: Caspase 3/7 activity assay, HCT116; settings: HCT116 cells, 48 h; 6 plus 19 at 5 μM
Procedure: (§1) Jurkat cells (10000 cells/well) and HCT116 (2000 cells/well) were seeded in white-walled 96-well plates (Greiner bio-one, Alphen a/d Rijn, The Netherlands) in 50 μL complete medium and cultured overnight. Then, 50 μL of compounds were added to the plates and incubated for 48 h. The Caspase-Glo 3/7 Reagent (Promega Corporation, Madison, WI, USA) was equilibrated to room temperature, and 100 μL of the reagent was added to each well. After incubation at room temperature for 1 h, the luminescence was collected using a Synergy H1 plate reader (Biotek, Winooski, VT, USA).

caspase 3/7 [2] = assay: Caspase 3/7 activity assay, Jurkat; settings: Jurkat cells, 48 h; 6 plus 19 at 5 μM
Procedure: as §1

Jurkat cells = assay: Apoptosis assay (Annexin V-FITC/PI flow cytometry), Jurkat; settings: 24 and 48 h
Procedure: The cell apoptosis assay was performed using eBioscience Annexin V-FITC/PI Apoptosis Detection Kit (Thermo Fisher Scientific, Carlsbad, CA, USA). Jurkat cells (5 × 10^5) and HCT116 cells (3 × 10^5) were treated with different concentrations of test compounds for 24 or 48 h. Cells were harvested after incubation, washed twice in cold PBS, centrifuged, and resuspended in 1X annexin-binding buffer. According to the manufacturer’s instructions, cells were incubated with Annexin V and Propidium iodide (PI) sequentially. All samples were analyzed by NovoCyte Quanteon Flow Cytometer (Agilent Technologies, CA, USA).

[3] = test system: acetyl-α-tubulin (Ac-Tubulin); assay: Ac-Tubulin level in Jurkat cells, Western blot; settings: 6 h
[4] = test system: acetyl-histone H3 (Ac-HH3); assay: Ac-HH3 level in Jurkat cells, Western blot; settings: 6 h
acetyl-SMC3 (Ac-SMC3) = assay: Ac-SMC3 level in Jurkat cells, Western blot; settings: 6 h

Compound	caspase 3/7 activity (in words) (caspase 3/7 [1])	caspase 3/7 activity (in words) (caspase 3/7 [2])	induction of apoptosis (in words) (Jurkat cells)	level of Ac-Tubulin (in words) [3]	level of Ac-HH3 at 1 μM (in words) [4]	level of Ac-SMC3 at 1 μM (in words) (acetyl-SMC3 (Ac-SMC3))
CCCCCCNNC(=O)c1ccc(CNC(=O)CN2CCC(c3ccc(NC4CCC(=O)NC4=O)cc3)CC2)cc1 (stereo not drawn) [Z16, 2-(4-(4-((2,6-Dioxopiperidin-3-yl)amino)phenyl)piperidin-1-yl)-N-(4-(2-hexylhydrazine-1-carbonyl)benzyl)acetamide]	significantly increased the caspase 3/7 activity in a dose-dependent manner	significantly increased the caspase 3/7 activity in a dose-dependent manner				
O=C(CCCCCCC(=O)Nc1ccccc1)NO [SAHA, reference compound]			neither Z16 nor SAHA could effectively induce apoptosis	only observed in the SAHA-treated group	significantly increase	neither 1 μM of pan-HDAC inhibitor SAHA nor 1 μM of HDAC8 inhibitor 6 increased the level of Ac-SMC3
